We go through one molecule from US20250171459A1, “2-METHYL-4',5'-DIHYDROSPIRO[PIPERIDINE-4,7'-THIENO[2,3-C]PYRAN] DERIVATIVES AS INHIBITORS OF APOL1 AND METHODS OF USING SAME” (Vertex Pharmaceuticals Incorporated, priority 2022, published 2025).

The chains behind the UniProt entries cited, without tags or fusion partners.
UniProt O14791, whole entry S342G/I384M: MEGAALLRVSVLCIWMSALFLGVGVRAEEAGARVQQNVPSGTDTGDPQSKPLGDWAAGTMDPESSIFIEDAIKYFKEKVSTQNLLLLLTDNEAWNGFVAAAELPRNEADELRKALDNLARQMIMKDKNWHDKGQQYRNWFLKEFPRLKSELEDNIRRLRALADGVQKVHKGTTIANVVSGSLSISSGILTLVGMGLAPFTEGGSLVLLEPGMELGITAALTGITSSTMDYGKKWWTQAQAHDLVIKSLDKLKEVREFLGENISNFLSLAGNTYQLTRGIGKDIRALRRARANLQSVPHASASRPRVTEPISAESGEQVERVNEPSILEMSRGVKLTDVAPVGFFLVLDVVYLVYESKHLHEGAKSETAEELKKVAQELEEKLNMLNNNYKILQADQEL

Molecules are shown by their SMILES.

The target in this assay is APOL1 (Homo sapiens, UniProt O14791). In words: MultiTox-Fluor Multiplex Cytotoxicity Assay in tet-inducible APOL1 T-REx-HEK293 cells (cell rescue, ratio of dead to live cells). The following applies: read-out: IP50 (i.e., IC50 for cell proliferation); tet-inducible transgenic APOL1 T-REx-HEK293 cell lines, 50 ng/mL tet, 24 hours.

`CC1COC2(CCN(Cc3cnn(C)c3)CC2)c2cc(Cl)sc21` (single isomer, unassigned): the IC50 was in the range of 100 to 500 nM.
